This note sets out measurements from US6121271A, “Naphtho[2,3-B]heteroar-4-yl derivatives” (American Home Products Corporation, priority 1999, dated 2000).

Protein sequences, listed by entry. Tags and fused reporters are not part of them. Lines headed by an entry give the natural chain unless they say otherwise; changes in a name come on top.
UniProt P18031: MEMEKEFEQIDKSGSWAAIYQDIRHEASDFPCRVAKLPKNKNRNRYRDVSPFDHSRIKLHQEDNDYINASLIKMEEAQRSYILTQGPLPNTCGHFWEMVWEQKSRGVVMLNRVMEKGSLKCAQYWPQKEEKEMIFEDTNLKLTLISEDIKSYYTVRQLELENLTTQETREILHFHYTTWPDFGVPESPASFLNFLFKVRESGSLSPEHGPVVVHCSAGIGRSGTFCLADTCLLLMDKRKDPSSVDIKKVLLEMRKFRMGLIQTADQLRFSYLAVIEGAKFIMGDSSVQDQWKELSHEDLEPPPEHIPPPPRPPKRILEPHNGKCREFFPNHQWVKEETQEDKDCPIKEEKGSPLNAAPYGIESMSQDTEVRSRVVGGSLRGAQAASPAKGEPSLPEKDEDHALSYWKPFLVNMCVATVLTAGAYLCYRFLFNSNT

This experiment has as its target recombinant, human protein tyrosine phosphatase (PTP) 1B (Homo sapiens, UniProt P18031). The experiment in a line: Inhibition of tri-phosphorylated insulin receptor dodecaphosphopeptide dephosphorylation by hPTP1B (malachite green-ammonium molybdate method). The following applies: 50 μM IR triphosphopeptide substrate, 37° C.

As a reminder, the IC50 is the concentration that gives 50% inhibition.

Regarding Ammonium molybdate tetrahydrate, the IC50 stood at 8.7 µM.
